Tested on: A549 cells
Test: Cytotoxicity assay by flow cytometry, Annexin V-DY634 / 7-AAD double staining
Conditions: A549, IC50 to ¼ IC50, dark and irradiation at 470 nm

[Ir(bzq)2(dpa-acr)]^+ [Complex 4]
Cytotoxic activity (Annexin V / 7-AAD): concentration-dependent cytotoxic activity

Reference: article PMC8472790, “Dual Emissive Ir(III) Complexes for Photodynamic Therapy and Bioimaging” (Pharmaceutics, 2021)
